# Data taken from ChEMBL document CHEMBL1165960, “Identification of the three-dimensional pharmacophore of kappa-opioid receptor agonists” (Bioorg Med Chem, 2010).
# Test: Selectivity ratio of Ki for mu opioid receptor to kappa opioid receptor
smiles,measurement,value
CN(CCc1ccccc1)C(=O)[C@H]1C[C@@]23C=C[C@]1(O)[C@@H]1Oc4c(O)ccc5c4[C@@]12CCN(CC1CC1)[C@@H]3C5,Ratio Ki,1.2
